Patent US20250270172A1

The chains behind the UniProt entries cited, without tags or fusion partners.
UniProt P28223, whole entry: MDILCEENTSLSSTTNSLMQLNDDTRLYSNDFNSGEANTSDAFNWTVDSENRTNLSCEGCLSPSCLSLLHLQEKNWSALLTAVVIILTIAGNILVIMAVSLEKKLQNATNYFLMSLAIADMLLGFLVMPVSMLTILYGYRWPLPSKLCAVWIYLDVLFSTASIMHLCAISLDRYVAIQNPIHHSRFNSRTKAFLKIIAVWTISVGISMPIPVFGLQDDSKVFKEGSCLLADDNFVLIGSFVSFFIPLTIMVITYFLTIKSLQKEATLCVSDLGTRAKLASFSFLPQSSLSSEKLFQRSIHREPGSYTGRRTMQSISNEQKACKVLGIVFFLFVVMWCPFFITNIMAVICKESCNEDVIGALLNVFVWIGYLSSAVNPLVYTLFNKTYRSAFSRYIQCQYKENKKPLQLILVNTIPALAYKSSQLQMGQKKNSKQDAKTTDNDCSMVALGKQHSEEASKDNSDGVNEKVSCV

Target: 5-HT2A (Homo sapiens (Human), UniProt P28223)
Experiment: Radioligand binding assay, [^3H]5-HT competition, 5-HT2A
Conditions: read-out: 5-HT2A serotonin binding Ki value; [^3H]5-HT radioligand, membranes of HEK293 cells expressing recombinant 5-HT2A; Ki from IC50 by Cheng-Prusoff

Q: How did the Ki turn out when `Cc1ncnc(C)c1-c1cc(NC(=O)c2cnsc2)ccc1OCCN1CCCC1` was run?
A: The Ki was 8.14 nM.
